The list shows a part of the results, in another mix than the full data. Some of these compounds have results that are not shown, active ones among them. Calls of active or inactive are those of the source.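 How the source made its calls: active means compounds whose cAMP rise, as percent of the full-agonist control response, exceeds 60; inactive means the rest.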
Target: Prostaglandin E2 receptor EP2 subtype (Homo sapiens) (UniProt P43116)
Test: modulation of human EP2 prostaglandin signaling – cell-based, HTRF cAMP, PGE2 stimulation, primary screen (AID 940);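 further: rat C6 glioma line stably carrying human EP2 under a CMV promoter; the protocol text gives 20 µM as final concentration; 100% = response of wells given 1 µM PGE2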
Conditions: EP2-expressing cells, cAMP HTRF FRET, PGE2 co-stimulation; at 25 µM; stronger effect = higher value

Amino acid sequences for entries named in this document (tags omitted).
UniProt P43116, whole entry: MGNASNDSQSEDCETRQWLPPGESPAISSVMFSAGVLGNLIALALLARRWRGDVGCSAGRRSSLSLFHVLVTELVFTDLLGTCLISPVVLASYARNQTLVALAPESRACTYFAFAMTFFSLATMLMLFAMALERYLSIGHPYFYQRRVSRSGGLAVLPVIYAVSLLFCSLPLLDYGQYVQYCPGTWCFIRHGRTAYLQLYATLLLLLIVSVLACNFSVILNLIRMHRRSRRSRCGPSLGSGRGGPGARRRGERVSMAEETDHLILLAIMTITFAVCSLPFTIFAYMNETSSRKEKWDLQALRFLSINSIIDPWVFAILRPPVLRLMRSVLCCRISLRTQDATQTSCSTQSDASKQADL

COc1ccc(Br)c(C(=O)NCC2(N3CCCCC3)CCCCC2)c1 was tested. Which induction did it give?
The induction was inactive: 6.7%.

For CN(C)c1cccc(C(=O)NCC2(N(C)C)CCCCC2)c1, which induction is on record?
The induction was inactive: 15.1%.

Which induction does the source give for CN1CCC[C@H](OC(=O)[C@](O)(c2ccccc2)C2CCCC2)C1 here?
The induction was inactive: 0.89%.

O=C(OC1CN2CCC1CC2)C(CO)(c1ccccc1)c1ccccc1 (stereo not drawn) was tested. Which induction did it give?
Its induction is inactive: 0.02%.

With C=C(C)C#C[C@@](O)(C(=O)OC1CCN(C)CC1)c1ccccc1 as the molecule, how does the induction read?
The induction was inactive: 4.64%.

For COc1cccc(C(=O)NCC2(N3CCCCC3)CCCCC2)c1, which induction is on record?
Its induction is inactive: 20.7%.

How did the induction turn out when C=CCN1CCN(CCOC(=O)C(O)(c2ccccc2)c2ccccc2)CC1 was run?
The induction was inactive: 20.8%.

With CCN1CCCC(OC(=O)C2(O)c3ccccc3C=Cc3ccccc32)C1 (stereo not drawn) as the molecule, how does the induction read?
Its induction is inactive: -4.54%.

How did the induction turn out when CN(C)C1CCCC1OC(=O)C(O)(c1ccccc1)c1ccccc1 (stereo not drawn) was run?
Its induction is inactive: 13.2%.

How did the induction turn out when Cc1ccccc1C(=O)NCC1(N2CCCCC2)CCCCC1 was run?
Its induction is inactive: -19.2%.

With CCN(CC)CC(C)C(C)OC(=O)C(O)(c1ccccc1)c1ccccc1 (stereo not drawn) as the molecule, how does the induction read?
Its induction is inactive: 14.3%.

CC(C)N1C(=O)CC2(CCN(CCOC(=O)C(O)(c3ccccc3)c3ccccc3)CC2)C1=O was tested. Which induction did it give?
Its induction is inactive: 4.69%.

For O=C(NCC1(N2CCCCC2)CCCCC1)c1cc([N+](=O)[O-])ccc1Cl, which induction is on record?
Its induction is inactive: -8.27%.
